Our source for the Activity and Ratio values is ChEMBL document CHEMBL3259614, “Design, synthesis, and structure-activity relationship studies of novel fused heterocycles-linked triazoles with good activity and water solubility” (J Med Chem, 2014).

One series relates to Hepatocyte. Briefly: Cytotoxicity against rat hepatocytes assessed as reduction in survival rate at 5 to 40 uM after 48 hrs by SRB assay. In kind it is cell-based.
For series [1], the system named is Candida albicans. As to the kind of experiment: Ratio of fluconazole MIC to compound MIC for fluconazole-resistant Candida albicans 103 after 24 hrs by serial dilution method. In kind it is functional.
Series [2] has as its system Candida albicans. As to the kind of experiment: Ratio of fluconazole MIC to compound MIC for fluconazole-resistant Candida albicans 100 after 24 hrs by serial dilution method. In kind it is functional.
For series [3], the system named is Candida albicans. Briefly: Ratio of fluconazole MIC to compound MIC for fluconazole-resistant Candida albicans J18 after 24 hrs by serial dilution method. In kind it is functional.

As for `C[C@@H](N1CCn2nc(-c3ccc(C#N)nc3)nc2C1)[C@](O)(Cn1cncn1)c1ccc(F)cc1F`, in the series on Hepatocyte, the Activity result is listed as “Non-toxic”. The Ratio in the series with Candida albicans [1], with Candida albicans [2] and in the series on Candida albicans [3] was 16 in each case.
